In patent US9546164B2 (GENENTECH, INC., priority 2013, dated 2017) one finds IC50 data, which are given here for one compound.

Sequences of proteins named here, by UniProt entry; tags and fusion partners are left off. A line that says so, or that is headed by a name, gives the form on record, which may keep a tag or linker.
UniProt Q15858, other isoform, or with tags, fused parts or gaps: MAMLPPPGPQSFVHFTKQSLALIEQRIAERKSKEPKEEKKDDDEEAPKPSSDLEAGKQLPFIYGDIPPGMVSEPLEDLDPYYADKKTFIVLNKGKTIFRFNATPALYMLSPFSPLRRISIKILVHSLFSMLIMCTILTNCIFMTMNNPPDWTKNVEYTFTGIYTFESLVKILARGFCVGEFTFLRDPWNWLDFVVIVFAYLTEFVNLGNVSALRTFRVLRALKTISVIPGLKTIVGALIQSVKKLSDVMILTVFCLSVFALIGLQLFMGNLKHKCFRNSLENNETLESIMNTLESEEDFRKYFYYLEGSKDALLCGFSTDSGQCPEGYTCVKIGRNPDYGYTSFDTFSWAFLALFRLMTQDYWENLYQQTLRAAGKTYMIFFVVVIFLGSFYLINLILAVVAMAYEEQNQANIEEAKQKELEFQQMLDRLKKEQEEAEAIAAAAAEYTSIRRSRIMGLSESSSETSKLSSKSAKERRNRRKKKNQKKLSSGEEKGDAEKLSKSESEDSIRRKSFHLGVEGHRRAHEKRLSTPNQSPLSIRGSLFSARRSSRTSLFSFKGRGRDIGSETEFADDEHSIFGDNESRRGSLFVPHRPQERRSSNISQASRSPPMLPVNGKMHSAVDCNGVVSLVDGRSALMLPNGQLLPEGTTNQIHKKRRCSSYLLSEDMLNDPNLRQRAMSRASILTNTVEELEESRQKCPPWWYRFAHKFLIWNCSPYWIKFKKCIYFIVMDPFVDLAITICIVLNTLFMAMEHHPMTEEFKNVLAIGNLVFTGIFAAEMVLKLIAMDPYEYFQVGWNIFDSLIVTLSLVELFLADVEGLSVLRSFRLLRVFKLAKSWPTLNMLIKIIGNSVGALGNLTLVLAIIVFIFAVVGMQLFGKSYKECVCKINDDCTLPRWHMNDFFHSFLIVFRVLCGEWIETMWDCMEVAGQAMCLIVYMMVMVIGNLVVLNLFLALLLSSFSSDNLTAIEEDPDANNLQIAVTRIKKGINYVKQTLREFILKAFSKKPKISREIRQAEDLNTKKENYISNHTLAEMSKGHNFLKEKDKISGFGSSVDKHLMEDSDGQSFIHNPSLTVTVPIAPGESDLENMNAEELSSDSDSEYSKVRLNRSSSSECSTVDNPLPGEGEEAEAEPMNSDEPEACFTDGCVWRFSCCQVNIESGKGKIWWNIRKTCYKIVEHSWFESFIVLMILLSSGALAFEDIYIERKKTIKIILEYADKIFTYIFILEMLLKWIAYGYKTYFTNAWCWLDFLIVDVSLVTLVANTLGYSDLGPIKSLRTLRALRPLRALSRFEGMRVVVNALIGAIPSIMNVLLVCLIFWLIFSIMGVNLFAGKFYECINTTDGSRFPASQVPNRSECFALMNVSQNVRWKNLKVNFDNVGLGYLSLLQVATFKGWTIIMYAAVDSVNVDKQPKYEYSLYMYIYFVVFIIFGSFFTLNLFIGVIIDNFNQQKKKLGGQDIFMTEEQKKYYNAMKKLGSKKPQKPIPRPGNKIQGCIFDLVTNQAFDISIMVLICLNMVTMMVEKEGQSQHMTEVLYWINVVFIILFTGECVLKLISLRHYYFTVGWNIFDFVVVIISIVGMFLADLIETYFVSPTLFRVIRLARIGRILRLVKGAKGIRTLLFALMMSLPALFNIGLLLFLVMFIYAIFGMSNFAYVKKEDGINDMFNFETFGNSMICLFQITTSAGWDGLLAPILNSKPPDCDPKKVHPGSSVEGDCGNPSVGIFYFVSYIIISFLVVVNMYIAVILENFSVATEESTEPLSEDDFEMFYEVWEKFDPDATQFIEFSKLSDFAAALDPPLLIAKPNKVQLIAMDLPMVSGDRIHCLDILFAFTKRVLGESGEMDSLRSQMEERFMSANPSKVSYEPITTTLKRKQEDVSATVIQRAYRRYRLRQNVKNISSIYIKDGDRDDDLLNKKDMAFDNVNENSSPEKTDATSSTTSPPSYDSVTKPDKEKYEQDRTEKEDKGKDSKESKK

This test addresses hNav1.7 (Homo sapiens (Human), UniProt Q15858). As to the kind of experiment: Tritiated sulfonamide competitive binding to membranes from cells expressing hNav1.7 and the β1 subunit.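 Also: Filter-bound radioactivity counted by liquid scintillation, nonspecific binding defined with excess unlabelled ligand, IC50 fitted to percent inhibition of specific binding.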

Structures are written as SMILES.

The term IC50 denotes the point on the concentration scale where inhibition reaches its midpoint. With `O=C(NS(=O)(=O)C1CC1)c1cc(C2CC2)c(O[C@@H]2CCCN(c3ccccc3)C2)cc1F` [Example 40, (R)-5-cyclopropyl-N-(cyclopropylsulfonyl)-2-fluoro-4-((1-phenylpiperidin-3-yl)oxy)benzamide], the IC50 stood at 8.4 nM.
